## Antibody variant affinities, Ab-95 light chain, assay 2

All variants were tested on one target, the spike HR2 peptide PDVDLGDISGINAS (SARS-CoV-2).

Each scFv is VH, three GGGGS repeats, VL, as in the parent Ab-95, and differs from it in the CDRs of the light chain only.
VH: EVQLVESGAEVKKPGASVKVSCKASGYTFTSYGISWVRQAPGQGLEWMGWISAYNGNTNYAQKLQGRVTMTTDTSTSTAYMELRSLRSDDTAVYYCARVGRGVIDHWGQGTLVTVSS
VL: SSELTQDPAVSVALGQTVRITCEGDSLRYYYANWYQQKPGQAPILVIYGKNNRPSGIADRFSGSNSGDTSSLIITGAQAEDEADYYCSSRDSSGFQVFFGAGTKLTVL

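The parent was found by panning a naive human phage display library on the peptide. Variants in AAYL52 differ from the parent at up to three CDR positions; double and triple changes were sampled at random. In AlphaSeq, yeast of one mating type display the scFv and yeast of the other type display the target. Mating (16 h, 30 °C) was followed by selection of diploids and sequencing of their barcodes. A regression on co-assayed BCL2-family reference pairs converts the normalised counts of each replicate to an apparent Kd. The assay was run in three technical replicates.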

Changes read parent residue, position, new residue, counted from the first residue of the VL shown. The read-out is the apparent dissociation constant on a log10 scale (nM): the lower, the stronger. Replicates are averaged; those with no signal do not enter the mean. An entry "not detected" has no value in the source: the pair was not observed among the diploids in any replicate. This suggests poor binding but is not conclusive. Order: sorted from the lowest average up, undetected variants last. Background: pairings of library AAYL52 with three empty control strains gave a value in 28% of cases (median 3.91, 5th percentile 2.90). Values in that range, when seen in few replicates, are hard to tell from nonspecific mating.

| # | log10 Kd (nM), mean | seen in | changes |
|---|---|---|---|
| 1 | 1.57 | 3/3 | E23K+K50E+N51K |
| 2 | 1.95 | 3/3 | Y31D+R53P |
| 3 | 1.96 | 3/3 | K50A+S89G+F95S |
| 4 | 1.99 | 3/3 | Y29R+N33F+S55D |
| 5 | 2.05 | 3/3 | G24Y+S88A+F98R |
| 6 | 2.20 | 3/3 | E23H+Y29N+A32M |
| 7 | 2.21 | 3/3 | Y31E+S55T+R90S |
| 8 | 2.25 | 3/3 | N51G+S89F+F98T |
| 9 | 2.28 | 3/3 | G49D+S55Y+S92R |
| 10 | 2.39 | 3/3 | D25K+N33H+F98Y |
| 11 | 2.43 | 3/3 | N52T+G94D+F98S |
| 12 | 2.52 | 3/3 | R28Q+Y30V+F95K |
| 13 | 2.63 | 3/3 | P54A+S55N+F95N |
| 14 | 2.64 | 3/3 | S26L+Y31G+N52I |
| 15 | 2.68 | 1/3 | N52C+S55A+F95V |
| 16 | 2.80 | 3/3 | L27N+Y29S+G94M |
| 17 | 2.83 | 3/3 | R28D+K50A+G94N |
| 18 | 3.07 | 3/3 | S26H+Y29W+G94M |
| 19 | 3.07 | 3/3 | G24F+D25Q |
| 20 | 3.08 | 2/3 | G49M+S55F+S93F |
| 21 | 3.13 | 3/3 | S26E+S93H+F95L |
| 22 | 3.17 | 1/3 | Y29I+N33I |
| 23 | 3.37 | 1/3 | R28P+N33L+S55H |
| 24 | 3.42 | 3/3 | R28K+N51W+S55L |
| 25 | 3.50 | 1/3 | S26N+S55H+Q96G |
| 26 | 3.51 | 3/3 | K50Y+S55I |
| 27 | 3.53 | 2/3 | E23N+G24I+D91F |
| 28 | 3.54 | 1/3 | G24E+S26N+K50L |
| 29 | 3.55 | 3/3 | Y31L+R90M+S93T |
| 30 | 3.57 | 3/3 | L27I+Y31G+F95H |
| 31 | 3.57 | 3/3 | Y31Q+A32R+D91G |
| 32 | 3.58 | 1/3 | E23C+N33H+S93K |
| 33 | 3.59 | 2/3 | N33A+R53N+Q96G |
| 34 | 3.60 | 3/3 | R28T+N52M+P54D |
| 35 | 3.65 | 2/3 | A32R+S93K+F98H |
| 36 | 3.76 | 1/3 | N33K+D91G+Q96P |
| 37 | 3.81 | 2/3 | E23G+R53C+D91E |
| 38 | 3.83 | 1/3 | R28G+R53M+P54N |
| 39 | 3.87 | 2/3 | S26R+S92Q+F98T |
| 40 | 3.88 | 1/3 | N33L+G49F |
| 41 | 3.91 | 3/3 | S55K+V97R+F98Q |
| 42 | 3.95 | 2/3 | E23M+D25K+K50C |
| 43 | 3.97 | 2/3 | D25C+F95A |
| 44 | 3.99 | 3/3 | R28S+S88P+D91F |
| 45 | 4.00 | 2/3 | G24N+S93N |
| 46 | 4.03 | 1/3 | Y29G+G94A+F95A |
| 47 | 4.03 | 1/3 | R28I+G49L |
| 48 | 4.09 | 2/3 | S26T+L27A+K50R |
| 49 | 4.09 | 2/3 | N33I+S89E+S93I |
| 50 | 4.10 | 1/3 | G49K+S93G+G94C |
| 51 | 4.15 | 3/3 | Y29D+D91I+Q96W |
| 52 | 4.17 | 2/3 | R28M+Y30P+N33M |
| 53 | 4.24 | 3/3 | L27V+R53S+S55W |
| 54 | 4.25 | 3/3 | S26H+P54H+Q96R |
| 55 | 4.31 | 1/3 | Y29I+S93L+V97P |
| 56 | 4.32 | 3/3 | R28V+S55W+S93V |
| 57 | 4.40 | 2/3 | G49P+K50Y+S93R |
| 58 | 4.42 | 2/3 | G49H+N52P+F98E |
| 59 | 4.46 | 3/3 | L27S+N52Q+Q96F |
| 60 | 4.57 | 2/3 | D25L+S26W+V97S |
| 61 | 4.62 | 3/3 | S26I+S92T+V97S |
| 62 | 4.85 | 1/3 | K50A+D91L+F98M |
| 63 | 4.86 | 2/3 | N33Y+S55I |
| 64 | 5.05 | 1/3 | N52A+S89F+F98W |
| 65 | 5.09 | 2/3 | Y29T+G49P+S89Y |
| 66 | 5.19 | 1/3 | D25Q+N33F+S89Y |
| 67 | not detected | 0/3 | S55F+R90A+D91Q |
| 68 | not detected | 0/3 | Y30R+G49C+Q96V |
| 69 | not detected | 0/3 | L27G+Y31M+V97G |
| 70 | not detected | 0/3 | D91L+S92Y+V97F |

8 of these entries, quoted again:

| changes | log10 Kd (nM), mean | seen in |
|---|---|---|
| A32R+S93K+F98H | 3.65 | 2/3 |
| R28M+Y30P+N33M | 4.17 | 2/3 |
| N51G+S89F+F98T | 2.25 | 3/3 |
| E23G+R53C+D91E | 3.81 | 2/3 |
| E23M+D25K+K50C | 3.95 | 2/3 |
| Y31D+R53P | 1.95 | 3/3 |
| Y29T+G49P+S89Y | 5.09 | 2/3 |
| R28S+S88P+D91F | 3.99 | 3/3 |

For reference, the parent read 2.31 as the reference entry and 2.25 as a member of this library.

From the AlphaSeq antibody data of Engelhart et al. 2022 (doi:10.1038/s41597-022-01779-4), copy in the FLAb collection.